Assay [1] concerns the target T1, serotonin transporter (Homo sapiens, UniProt P31645). In words: 5-HT uptake: displacement of serotonin ligands in vitro (methods of Gu et al.). The class given is binding. Particulars: read-out: 5-HT Uptake, Uptake Profile (IC50).
Assay [2] concerns the target T2, norepinephrine transporter (Homo sapiens, UniProt P23975). In words: NE uptake: displacement of norephinephrine ligands in vitro (methods of Galli et al.). The class given is binding. As to conditions: read-out: NE Uptake, Uptake Profile (IC50).
The target in another assay is dopamine transporter (Homo sapiens, UniProt Q01959). In words: DA uptake: displacement of dopamine ligands in vitro (methods of Gu et al.). Particulars: read-out: DA Uptake, Uptake Profile (IC50).
The target of a further assay is DAT (Homo sapiens, UniProt Q01959). Particulars: read-out: DA Uptake, Functional Assays (antagonism, EC50); hDAT cell line.
Assay [3] concerns the target T1, serotonin transporter. Kind of assay: Functional activity, serotonin uptake inhibition in human HEK-293 cell lines. Type of assay: cell-based. As to conditions: read-out: 5-HT Uptake, Functional Assays (antagonism, EC50).
Assay [4] deals with T2, norepinephrine transporter. In words: Functional activity, norephinephrine uptake inhibition in MDCK cell lines. Type of assay: cell-based. As to conditions: read-out: NE Uptake, Functional Assays (antagonism, EC50).

Protein sequences, listed by entry. Tags and fused reporters are not part of them.
UniProt P31645, whole entry: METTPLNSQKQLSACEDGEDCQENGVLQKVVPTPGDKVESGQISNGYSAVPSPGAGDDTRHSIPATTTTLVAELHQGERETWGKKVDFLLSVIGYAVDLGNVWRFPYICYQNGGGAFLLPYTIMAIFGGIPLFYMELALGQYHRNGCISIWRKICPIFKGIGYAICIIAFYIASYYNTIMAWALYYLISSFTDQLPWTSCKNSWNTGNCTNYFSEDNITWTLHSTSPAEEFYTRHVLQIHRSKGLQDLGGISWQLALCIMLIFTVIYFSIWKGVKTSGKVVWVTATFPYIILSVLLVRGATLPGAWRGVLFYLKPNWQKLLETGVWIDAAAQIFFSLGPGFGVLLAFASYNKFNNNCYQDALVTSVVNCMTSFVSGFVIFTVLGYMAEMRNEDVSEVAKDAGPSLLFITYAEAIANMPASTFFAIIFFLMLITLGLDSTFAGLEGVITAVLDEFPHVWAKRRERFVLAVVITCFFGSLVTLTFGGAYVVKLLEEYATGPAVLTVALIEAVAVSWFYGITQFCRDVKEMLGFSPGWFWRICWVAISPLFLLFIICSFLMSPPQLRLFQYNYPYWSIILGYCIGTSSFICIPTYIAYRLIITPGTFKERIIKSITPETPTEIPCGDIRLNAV
UniProt P23975, whole entry: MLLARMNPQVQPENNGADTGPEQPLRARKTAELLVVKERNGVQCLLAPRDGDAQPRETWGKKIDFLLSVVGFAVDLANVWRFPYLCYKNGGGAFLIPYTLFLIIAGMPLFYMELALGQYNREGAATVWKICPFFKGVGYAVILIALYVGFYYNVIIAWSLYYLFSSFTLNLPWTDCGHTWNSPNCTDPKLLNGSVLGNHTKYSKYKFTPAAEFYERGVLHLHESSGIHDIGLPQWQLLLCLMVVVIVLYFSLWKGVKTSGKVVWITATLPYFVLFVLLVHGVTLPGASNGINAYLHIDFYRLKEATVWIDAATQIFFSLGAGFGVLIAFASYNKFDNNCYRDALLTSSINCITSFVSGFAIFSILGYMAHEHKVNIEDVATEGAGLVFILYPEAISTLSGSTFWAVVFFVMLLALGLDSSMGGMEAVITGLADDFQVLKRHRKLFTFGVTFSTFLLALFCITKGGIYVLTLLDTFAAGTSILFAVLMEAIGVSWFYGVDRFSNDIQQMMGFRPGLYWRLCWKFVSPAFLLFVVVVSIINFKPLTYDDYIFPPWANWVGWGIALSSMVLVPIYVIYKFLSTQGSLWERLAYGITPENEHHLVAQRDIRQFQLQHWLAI
UniProt Q01959, whole entry: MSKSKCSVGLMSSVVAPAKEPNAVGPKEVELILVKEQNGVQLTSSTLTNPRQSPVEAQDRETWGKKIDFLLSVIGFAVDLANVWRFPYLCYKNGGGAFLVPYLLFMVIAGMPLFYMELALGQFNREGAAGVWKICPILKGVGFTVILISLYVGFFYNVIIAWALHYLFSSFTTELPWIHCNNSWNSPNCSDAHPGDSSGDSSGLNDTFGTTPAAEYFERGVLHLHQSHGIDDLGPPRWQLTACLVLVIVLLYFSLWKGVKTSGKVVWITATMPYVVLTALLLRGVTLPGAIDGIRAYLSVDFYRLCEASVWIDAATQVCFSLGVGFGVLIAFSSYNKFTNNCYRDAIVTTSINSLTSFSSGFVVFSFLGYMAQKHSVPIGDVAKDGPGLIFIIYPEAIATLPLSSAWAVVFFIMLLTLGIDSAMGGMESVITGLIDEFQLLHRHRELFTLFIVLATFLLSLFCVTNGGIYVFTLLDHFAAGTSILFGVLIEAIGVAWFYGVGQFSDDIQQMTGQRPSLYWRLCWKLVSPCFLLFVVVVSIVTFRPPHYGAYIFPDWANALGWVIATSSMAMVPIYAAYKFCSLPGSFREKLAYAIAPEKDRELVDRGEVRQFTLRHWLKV

Each structure is given as a SMILES string. Some results are limits rather than exact numbers.

Data on three compounds can be found in patent publication US7294637B2 (Sepracor, Inc., priority 2000, dated 2007).

In general, IC50 refers to the point on the concentration scale where inhibition reaches its midpoint. Take `OCC1CCCCN(CC2(c3ccc(Cl)cc3)CCC2)C1` (stereo not drawn): the IC50 on serotonin transporter [1] was above 1000 nM; in assay [2] it was above 1000 nM; on dopamine transporter, below 1000 nM.

One may read the EC50 as the concentration giving half of the maximal effect. For `FC(F)(F)c1ccc(OCCC2CCCN(CC3(c4ccc(Cl)cc4)CCC3)C2)cc1` (single isomer, unassigned) [118], the figures for the 50% effective concentration (EC50) (at DAT; at serotonin transporter [3]; in assay [4]) were below 10 nM, above 1000 nM and below 100 nM, respectively. Further, the IC50 at serotonin transporter [1] is above 1000 nM; in assay [2], below 1000 nM; on dopamine transporter it was below 10 nM.

In the case of `FC(F)(F)c1ccc(OCCC2CCCN(CC3(c4ccc(Cl)cc4)CCC3)C2)cc1` (single isomer, unassigned) [119], the concentration for a half-maximal effect (EC50) on DAT is below 10 nM; at serotonin transporter [3] it was above 1000 nM; in assay [4], below 100 nM. Further, the IC50 is above 1000 nM on serotonin transporter [1], below 100 nM in assay [2] and below 10 nM on dopamine transporter.
